Assay results reported in patent US10214520B2, “Substituted azaspiro(4.5)decane derivatives” (priority 2014, dated 2019).
pKi: −log10 of the molar value.

Amino acid sequences for entries named in this document (tags omitted).
UniProt P35372, whole entry: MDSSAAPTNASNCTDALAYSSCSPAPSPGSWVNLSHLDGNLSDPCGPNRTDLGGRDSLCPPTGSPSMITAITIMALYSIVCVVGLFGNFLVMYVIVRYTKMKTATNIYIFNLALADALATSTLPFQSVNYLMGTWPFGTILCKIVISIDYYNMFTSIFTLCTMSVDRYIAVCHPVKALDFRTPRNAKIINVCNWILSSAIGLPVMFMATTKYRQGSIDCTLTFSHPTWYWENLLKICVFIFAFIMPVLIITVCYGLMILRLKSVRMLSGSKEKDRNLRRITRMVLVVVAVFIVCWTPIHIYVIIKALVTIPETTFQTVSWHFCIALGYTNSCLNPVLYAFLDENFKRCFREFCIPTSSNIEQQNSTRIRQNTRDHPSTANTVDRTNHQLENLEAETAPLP
UniProt P41146, whole entry: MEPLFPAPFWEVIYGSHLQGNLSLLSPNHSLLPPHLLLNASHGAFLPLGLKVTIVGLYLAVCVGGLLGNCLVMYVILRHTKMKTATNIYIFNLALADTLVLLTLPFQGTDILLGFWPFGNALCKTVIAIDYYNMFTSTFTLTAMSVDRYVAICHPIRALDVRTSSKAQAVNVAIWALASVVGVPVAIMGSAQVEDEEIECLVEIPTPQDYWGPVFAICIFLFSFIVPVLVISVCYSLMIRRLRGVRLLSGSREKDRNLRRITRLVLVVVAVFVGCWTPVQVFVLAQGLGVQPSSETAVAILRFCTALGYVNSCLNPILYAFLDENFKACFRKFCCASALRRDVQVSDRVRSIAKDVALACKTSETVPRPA

What was measured:
human μ opiate receptor = human μ opiate receptor (Homo sapiens, UniProt P35372); assay: μ opiate receptor binding assay with [3H]-naloxone, membrane preparation of CHO-K1 cells (WGA-SPA beads); conditions: for pKi: read-out: Ki (μ) mean [μm], mean; for % inhibition (μ) [1 μM]: test concentration 1 μM
ORL1 receptor = ORL1 receptor (Homo sapiens, UniProt P41146); assay: ORL1 receptor binding assay with 3H-nociceptin/orphanin FQ, membranes from recombinant CHO-ORL1 cells (WGA-SPA beads); conditions: for pKi: read-out: Ki (ORL1) mean [μm], mean; for % inhibition (ORL1) [1 μM]: test concentration 1 μM
[1] = system: Female Sprague Dawley rats; assay: Analgesia in the tail flick (focal ray) test in rats, intravenous administration

Q: CN(C)C1(c2ccccc2)CCC2(CC1)CC(=O)N(CC(C)(C)C(N)=O)C2 (stereo not drawn) was tested. Which pKi (human μ opiate receptor) did it give?
A: 7.89

Q: And the “% inhibition (μ) [1 μM]” value (human μ opiate receptor)?
A: 96.5%

Q: What about the pKi (ORL1 receptor) of the same compound?
A: 7.52

Q: What about the “% inhibition (ORL1) [1 μM]” value (ORL1 receptor) of the same compound?
A: 84%

Q: How did the pKi (human μ opiate receptor) turn out when Cc1ccsc1C(=O)N1CCC2(CCC(c3cccs3)(N(C)C)CC2)C1 (stereo not drawn) was run?
A: 8.82

Q: And the “% inhibition (μ) [1 μM]” value (human μ opiate receptor)?
A: 99.5%

Q: And the pKi (ORL1 receptor)?
A: 7.86

Q: What about the “% inhibition (ORL1) [1 μM]” value (ORL1 receptor) of the same compound?
A: 91%

Q: With CN(C)C1(c2cccs2)CCC2(CC1)CC(=O)N(Cc1ccncc1)C2 (single isomer, unassigned) as the compound, how does the pKi (human μ opiate receptor) read?
A: 5.95

Q: And the “% inhibition (μ) [1 μM]” value (human μ opiate receptor)?
A: 20.5%

Q: What about the pKi (ORL1 receptor) of the same compound?
A: 6.59

Q: What about the “% inhibition (ORL1) [1 μM]” value (ORL1 receptor) of the same compound?
A: 31%

Q: Which results are given for CN(C)C1(Cc2ccccc2)CCC2(CCN(Cc3ccccc3)C2=O)CC1 (single isomer, unassigned) [86]?
A: pKi (human μ opiate receptor): 6.38; % inhibition (μ) [1 μM] (human μ opiate receptor; 1 µM): 11%; % inhibition (ORL1) [1 μM] (ORL1 receptor; 1 µM): 12.7%

Q: With CN(C)C1(Cc2ccccc2)CCC2(CCN(Cc3ccccc3)C2=O)CC1 (single isomer, unassigned) [87] as the compound, how does the pKi (human μ opiate receptor) read?
A: 7.02

Q: And the “% inhibition (μ) [1 μM]” value (human μ opiate receptor; 1 µM)?
A: 79.5%

Q: What about the pKi (ORL1 receptor) of the same compound?
A: 6.60

Q: What about the “% inhibition (ORL1) [1 μM]” value (ORL1 receptor; 1 µM) of the same compound?
A: 47.33%

Q: With CN(C)C1(c2cccs2)CCC2(CC1)CC(=O)N(C(=O)OC(C)(C)C)C2 (single isomer, unassigned) [90] as the compound, how does the pKi (human μ opiate receptor) read?
A: 8.52

Q: What about the “% inhibition (μ) [1 μM]” value (human μ opiate receptor; 1 µM) of the same compound?
A: 98.5%

Q: And the pKi (ORL1 receptor)?
A: 8.09

Q: What about the “% inhibition (ORL1) [1 μM]” value (ORL1 receptor; 1 µM) of the same compound?
A: 89%

Q: With CN(C)C1(c2cccs2)CCC2(CC1)CC(=O)N(C(=O)OC(C)(C)C)C2 (single isomer, unassigned) [91] as the compound, how does the pKi (human μ opiate receptor) read?
A: 6.43

Q: What about the “% inhibition (μ) [1 μM]” value (human μ opiate receptor; 1 µM) of the same compound?
A: 53.5%

Q: What about the pKi (ORL1 receptor) of the same compound?
A: 6.64

Q: And the “% inhibition (ORL1) [1 μM]” value (ORL1 receptor; 1 µM)?
A: 36%

Q: CN(C)C1(c2cccs2)CCC2(CC1)CC(=O)N(Cc1cccs1)C2 (single isomer, unassigned) [94] was tested. Which pKi (human μ opiate receptor) did it give?
A: 9.38

Q: What about the “% inhibition (μ) [1 μM]” value (human μ opiate receptor; 1 µM) of the same compound?
A: 99%

Q: And the pKi (ORL1 receptor)?
A: 8.87

Q: What about the “% inhibition (ORL1) [1 μM]” value (ORL1 receptor; 1 µM) of the same compound?
A: 94.5%

Q: With CN(C)C1(c2cccs2)CCC2(CC1)CC(=O)N(Cc1cccs1)C2 (single isomer, unassigned) [95] as the compound, how does the pKi (human μ opiate receptor) read?
A: 6.27

Q: What about the “% inhibition (μ) [1 μM]” value (human μ opiate receptor; 1 µM) of the same compound?
A: 61.5%

Q: And the pKi (ORL1 receptor)?
A: 7.02

Q: What about the “% inhibition (ORL1) [1 μM]” value (ORL1 receptor; 1 µM) of the same compound?
A: 65%

Q: What does the source list for Cc1ccc(C2(N(C)C)CCC3(CC2)CC(=O)N(Cc2ccccc2)C3)s1 (single isomer, unassigned) [98]?
A: pKi (human μ opiate receptor): 9.28; % inhibition (μ) [1 μM] (human μ opiate receptor; 1 µM): 98.5%; pKi (ORL1 receptor): 8.52; % inhibition (ORL1) [1 μM] (ORL1 receptor; 1 µM): 87%

Q: With Cc1ccc(C2(N(C)C)CCC3(CC2)CC(=O)N(Cc2ccccc2)C3)s1 (single isomer, unassigned) [99] as the compound, how does the pKi (human μ opiate receptor) read?
A: 6.63

Q: What about the “% inhibition (μ) [1 μM]” value (human μ opiate receptor; 1 µM) of the same compound?
A: 39.5%

Q: What about the pKi (ORL1 receptor) of the same compound?
A: 6.92

Q: What about the “% inhibition (ORL1) [1 μM]” value (ORL1 receptor; 1 µM) of the same compound?
A: 16%

Q: What does the source list for CN(C)C1(c2ccccc2)CCC2(CC1)CC(=O)N(Cc1ccncc1)C2 (single isomer, unassigned) [103]?
A: pKi (human μ opiate receptor): 7.37; % inhibition (μ) [1 μM] (human μ opiate receptor; 1 µM): 93%; Tail flick rat, i.v. % MPE (@μg/kg) ([1]; @10 μg/kg): 60%@10 % MPE; pKi (ORL1 receptor): 7.50; % inhibition (ORL1) [1 μM] (ORL1 receptor; 1 µM): 74.5%

Q: What does the source list for CN(C)C1(c2ccccc2)CCC2(CC1)CC(=O)N(Cc1ccncc1)C2 (single isomer, unassigned) [104]?
A: pKi (human μ opiate receptor): 6.38; % inhibition (μ) [1 μM] (human μ opiate receptor; 1 µM): 65.5%; pKi (ORL1 receptor): 7.06; % inhibition (ORL1) [1 μM] (ORL1 receptor; 1 µM): 59.5%

Q: With CN(C)C1(c2ccccc2)CCC2(CC1)CC(=O)N(Cc1cccs1)C2 (single isomer, unassigned) [105] as the compound, how does the pKi (human μ opiate receptor) read?
A: 9.18

Q: What about the “% inhibition (μ) [1 μM]” value (human μ opiate receptor; 1 µM) of the same compound?
A: 100%

Q: And the pKi (ORL1 receptor)?
A: 8.66

Q: What about the “% inhibition (ORL1) [1 μM]” value (ORL1 receptor; 1 µM) of the same compound?
A: 95%

Q: With CN(C)C1(c2ccccc2)CCC2(CC1)CC(=O)N(Cc1cccs1)C2 (single isomer, unassigned) [106] as the compound, how does the pKi (human μ opiate receptor) read?
A: 6.55

Q: And the “% inhibition (μ) [1 μM]” value (human μ opiate receptor; 1 µM)?
A: 48.5%

Q: What about the pKi (ORL1 receptor) of the same compound?
A: 7.23

Q: What about the “% inhibition (ORL1) [1 μM]” value (ORL1 receptor; 1 µM) of the same compound?
A: 61%

Q: Cc1ccc(CN2CC3(CCC(c4ccccc4)(N(C)C)CC3)CC2=O)s1 (single isomer, unassigned) [107] was tested. Which pKi (human μ opiate receptor) did it give?
A: 9.47

Q: And the “% inhibition (μ) [1 μM]” value (human μ opiate receptor; 1 µM)?
A: 101.5%

Q: What about the pKi (ORL1 receptor) of the same compound?
A: 8.72

Q: And the “% inhibition (ORL1) [1 μM]” value (ORL1 receptor; 1 µM)?
A: 97%

Q: What does the source list for Cc1ccc(CN2CC3(CCC(c4ccccc4)(N(C)C)CC3)CC2=O)s1 (single isomer, unassigned) [108]?
A: pKi (human μ opiate receptor): 6.37; % inhibition (μ) [1 μM] (human μ opiate receptor; 1 µM): 88%; pKi (ORL1 receptor): 7.31; % inhibition (ORL1) [1 μM] (ORL1 receptor; 1 µM): 64.5%

Q: CN(C)C1(c2cccs2)CCC2(CCN(Cc3ccncc3)C2)CC1 (stereo not drawn) [29] was tested. Which pKi (human μ opiate receptor) did it give?
A: 7.52

Q: And the “% inhibition (μ) [1 μM]” value (human μ opiate receptor; 1 µM)?
A: 93.5%

Q: And the “Tail flick rat, i.v. % MPE (@μg/kg)” value ([1]; @1000 μg/kg)?
A: 31%@1000 % MPE

Q: What about the pKi (ORL1 receptor) of the same compound?
A: 7.84

Q: And the “% inhibition (ORL1) [1 μM]” value (ORL1 receptor; 1 µM)?
A: 77.5%

Q: How did the pKi (human μ opiate receptor) turn out when CN(C)C1(c2ccccc2)CCC2(CC1)CC(=O)N(Cc1ccccc1)C2 (stereo not drawn) [101] was run?
A: 9.25

Q: What about the “% inhibition (μ) [1 μM]” value (human μ opiate receptor; 1 µM) of the same compound?
A: 96.5%

Q: What about the “Tail flick rat, i.v. % MPE (@μg/kg)” value ([1]; @100 μg/kg) of the same compound?
A: 100%@100 % MPE

Q: What about the pKi (ORL1 receptor) of the same compound?
A: 8.94

Q: And the “% inhibition (ORL1) [1 μM]” value (ORL1 receptor; 1 µM)?
A: 95.5%
